Key:
SMMC-7721 = assay: Cytotoxicity against human SMMC-7721 cells assessed as reduction in cell viability incubated for 48 hrs by MTT assay
HepG2 = assay: Cytotoxicity against human HepG2 cells assessed as reduction in cell viability incubated for 48 hrs by MTT assay
HL-60 = assay: Cytotoxicity against human HL-60 cells assessed as reduction in cell viability incubated for 48 hrs by MTT assay
HeLa = assay: Cytotoxicity against human HeLa cells assessed as reduction in cell viability incubated for 48 hrs by MTT assay

Compound	IC50 (SMMC-7721) [µM]	IC50 (HepG2) [µM]	IC50 (HL-60) [µM]	IC50 (HeLa) [µM]
NCC(=O)Nc1cc([As]2SCCCS2)ccc1O	9.87	5.13	0.9	> 10
NCC(=O)Nc1cccc([As]2SCCS2)c1	> 10	> 10	2.49	> 10
NCC(=O)Nc1cc([As]2SCCS2)ccc1O	> 10	> 10	3.46	> 10
NCC(=O)Nc1ccccc1[As]1SCCCS1	> 10	5.36	1.73	> 10
NCCCC(=O)Nc1ccccc1[As]1SCCCS1	> 10	> 10	1.84	> 10
NCC(=O)Nc1cccc([As]2SCCCS2)c1	7.76	5.02	0.96	8.57
NCCCC(=O)Nc1ccccc1[As]1SCCS1	> 10	7.27	3.84	> 10
Nc1ccc([As]2SCCS2)cc1	> 10	5.08	2.26	> 10
NCCCCCC(=O)Nc1ccccc1[As]1SCCS1	> 10	> 10	4.9	> 10
O=[N+]([O-])c1cc([As]2SCCCS2)ccc1O	6.9	2.58	0.67	> 10
Nc1ccccc1[As]1SCCCS1	2.91	2.42	0.21	3.14
NCCCCCC(=O)Nc1cccc([As]2SCCS2)c1	> 10	> 10	4.95	> 10
O=[N+]([O-])c1cc([As]2SCCS2)ccc1O	> 10	> 10	3.7	> 10
NCCCC(=O)Nc1ccc([As]2SCCS2)cc1	> 10	> 10	2.4	> 10
NCCCCCC(=O)Nc1ccc([As]2SCCS2)cc1	> 10	> 10	4.54	> 10
NCC(=O)Nc1ccc([As]2SCCS2)cc1	> 10	> 10	1.72	> 10
Nc1ccc([As]2SCCCS2)cc1		2.27	0.81	4.86
Nc1ccccc1[As]1SCCS1	6.38	3.32	6.5	5.48
Nc1cc([As]2SCCS2)ccc1O	> 10	> 10	4.85	> 10
Nc1cc([As]2SCCCS2)ccc1O	6.74	3.74	1.64	7.77
Nc1cccc([As]2SCCCS2)c1	5.79	2.5	0.75	5.67
NCCCC(=O)Nc1cccc([As]2SCCCS2)c1	> 10	> 10	1.79	> 10
NCCCC(=O)Nc1ccc([As]2SCCCS2)cc1	> 10	7.04	1.71	> 10
NCC(=O)Nc1ccccc1[As]1SCCS1	> 10	> 10	4.9	> 10
Nc1cccc([As]2SCCS2)c1	> 10	> 10	2.93	> 10
COc1ccc([As]2SCCCS2)cc1NC(=O)CN	4.81	2.47	0.86	5.13
COc1ccc([As]2SCCS2)cc1NC(=O)CN	> 10	5.13	1.62	> 10
NCCCC(=O)Nc1cccc([As]2SCCS2)c1	> 10	> 10	3.7	> 10
NCC(=O)Nc1ccc([As]2SCCCS2)cc1	9.25	5.79	1.13	9.05
